Values quoted from earlier work, collected in PMC4554882 (Bioorganic & medicinal chemistry, 2015).

Details: prior study of the authors; ref [11]; cited from earlier work

For `COc1ccc2c(c1)CCCN2c1nc(Cl)nc2ccccc12` [Compound 1a], the “metabolic stability t1/2” value is given as 10.6 min.
